The assay deals with Neutrophil Elastase (Homo sapiens, UniProt P08246).

Amino acid sequences for entries named in this document (tags omitted). Residues count along the entry.
UniProt P08246, 30-267 limits assumed: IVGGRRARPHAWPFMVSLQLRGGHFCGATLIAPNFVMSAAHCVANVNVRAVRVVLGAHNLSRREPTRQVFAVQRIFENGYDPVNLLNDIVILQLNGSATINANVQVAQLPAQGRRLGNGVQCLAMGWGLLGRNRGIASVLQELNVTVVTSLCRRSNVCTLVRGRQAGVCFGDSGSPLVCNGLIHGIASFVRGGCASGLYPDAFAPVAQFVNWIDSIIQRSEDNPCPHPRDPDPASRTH

We go through one compound from patent US11104703B2, “Binding compound and uses thereof” (priority 2016, dated 2021).

Structures are written as SMILES.

`CC(C)N(CC(=O)NCC(=O)NCC(=O)NCCCOCCOCCOCCCNC(=O)CCCC[C@@H]1SC[C@@H]2NC(=O)N[C@@H]21)C(=O)ON1C(=O)CCC1=O` registered an inhibition constant Ki of 6 µM. This counts as single-digit micromolar.

As a reminder, the Ki is the dissociation constant of the complex between target and ligand, obtained from inhibition or displacement. High values mean weaker binding, low ones tighter binding.
